This note sets out measurements from patent US6841359 (GENERAL HOSPITAL, dated 2005).

Amino acid sequences for entries named in this document (tags omitted). Residues count along the entry.
UniProt P22629, 37-163 limits assumed: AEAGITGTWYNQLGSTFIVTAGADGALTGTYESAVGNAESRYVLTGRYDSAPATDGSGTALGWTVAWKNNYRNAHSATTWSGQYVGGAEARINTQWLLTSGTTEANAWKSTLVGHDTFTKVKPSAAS

The target of assay [1] is T1, streptavidin (UniProt P22629 37-163, limits assumed).
T1 construct: The same protein was used free (EMSA, Biacore, SBIA) and immobilized on a matrix or plate; also called immobilized streptavidin; Ultralink immobilized streptavidin plus
Briefly: streptavidin column-binding assay, 35S DNA-tagged peptide on immobilized streptavidin, biotin elution. As to the method: The resulting purified DNA-tagged peptides (DTP) were analyzed in a streptavidin column-binding assay, in which ~500 pM ^35S-labeled DTP were mixed with 50 µL of the streptavidin matrix in streptavidin-binding buffer, in a total volume of 300 µL, and incubated for 10 minutes at room temperature with agitation. Then, the contents were loaded onto a chromatography column. The column was drained and washed with 80 column volumes of streptavidin-binding buffer, and then eluted with three consecutive aliquots (3 column volumes each) of streptavidin-binding buffer plus 2 mM biotin over a 15 minute period. All fractions (flow-through, washes, elutions, and irreversibly bound counts) were analyzed by scintillation counting to determine the fraction of DTP that bound streptavidin and eluted with biotin (Table 1).

Assay [2] deals with T1, streptavidin. The assay is described as follows: EMSA, DNA-tagged peptide with free streptavidin; SD 16, n=4. On the procedure: (§1) The dissociation constants of the selected peptides for streptavidin were measuring using an electrophoretic mobility shift assay (EMSA). In this assay, DTP's were incubated with varying amounts of pure streptavidin (Pierce Immunopure Streptavidin, Rockford, Ill.) in streptavidin-binding buffer plus 5% glycerol to increase the density of the solution so that it could collect at the bottom of the gel well. After incubating at room temperature for 20 minutes, the reactions mixtures were moved into the cold room, where they remained for 10 minutes before being carefully loaded onto a 10% polyacrylamide:bisacrylamide (37.5:1, National Diagnostics, Atlanta, Ga.) gel (thickness 0.7 mm, height 16 cm, width 18 cm) containing 2×TBE, 0.1% Triton X-100 and 5% glycerol. The gel, which had been pre-run for 30 minutes at 13 watts, and the running buffer were pre-cooled to 4° C. Then, the gel was run in the cold room at 13 watts, which increased the temperature of the gel to about 20° C. The gel was run for 45 to 120 minutes, depending on the mobility of the particular DTP. Then, the gel was fixed in 10% acetic acid and 10% methanol for 15 minutes, transferred to electrophoresis paper (Ahlstrom, Mt. Holly Springs, Pa.), dried, and analyzed using a PhosphorImager (Molecular Dynamics, Sunnyvale, Calif.).
In general terms: In EMSA bound probe runs differently from free probe, usually more slowly.

In assay [3] the target is T1, streptavidin. Briefly: EMSA, DNA-tagged peptide with free streptavidin; SD 1.8, n=10. On the procedure: as §1

B1: SB14 (peptide)
peptide: MDEKTHRTLSVSLSFNDWLGQTKACWRLVEGLHGHPQGLVREHEVDVLPLAEEVQQVVGGLADGVEQPGGGLLHRAQRVDHPLPDHAGQVLGRLVWRLPPS
modifications: C-terminus joined through puromycin to a short DNA oligonucleotide (DNA-tagged peptide); 35S-methionine label
notes: also called peptide SB14
Regarding B1, the “% binding and eluting” value with streptavidin [1] came out at 11%.

B2: SB15 (peptide)
peptide: MDEKTHWLEDLKGVLKDCLKDLMDFTKDCRSPRVQPQPLLHHDRGEPVPLLREAGRDLGGLGPRAPRQARPLHHGRHDLHEPLVLQDHPQGGPLVCGCHHH
modifications: C-terminus joined through puromycin to a short DNA oligonucleotide (DNA-tagged peptide); 35S-methionine label
notes: also called peptide SB15
Regarding B2, the Kd with streptavidin [2] was determined as 0.092 µM. In the assay with streptavidin [1], the “% binding and eluting” value worked out at 44%.

B3: SB20 (peptide)
peptide: MNEKTHCKLNFKVNIADWLAEFHGGGQGLLGRRDGVVQRLVDGVQERVERLDRDPGLGDLRLELHHRDHRLRLGGEHLLRDHPLEPDDHLVVGGLVWRLPPS
modifications: C-terminus joined through puromycin to a short DNA oligonucleotide (DNA-tagged peptide); 35S-methionine label
notes: also called peptide SB20
With B3, in the assay with streptavidin [1], the “% binding and eluting” value is 34%.

B4: SB12 (peptide)
peptide: MDKDPLLEELEELRERLVHHPQGGLLPLRGQVGHDAERLGAEVDDLRGGLLDEPQRAVAGLHHVPHRVGQRLVHEVRELDEGLLDQRDDLRQRLVWRLPPS
modifications: C-terminus joined through puromycin to a short DNA oligonucleotide (DNA-tagged peptide); 35S-methionine label
notes: also called peptide SB12
As for B4, in the assay with streptavidin [1], the “% binding and eluting” value is 73%.

B5: SB13 (peptide)
peptide: MEREDPLDEQLRELREALVDHPQGGAQALHRHDGGEHVPLRRVQHRLQPGLQHHLEPQPLGLLGELQARLQPLAGEHEGDGAGLQRVPGHQGRRLVWRLPPS
modifications: C-terminus joined through puromycin to a short DNA oligonucleotide (DNA-tagged peptide); 35S-methionine label
notes: also called peptide SB13
With B5, the “% binding and eluting” value with streptavidin [1] was 64%.

B6: SB11 (peptide)
peptide: MDEKTHWHERVHHLADGLEQHPQGQRRPLVERHRQVPRGLVRELQHEGLPLEHPAGVHVIRLHQGDDRDVDGLVDGHGRDVRGLEREVGDGPHRLVWRLPPS
modifications: C-terminus joined through puromycin to a short DNA oligonucleotide (DNA-tagged peptide); 35S-methionine label
notes: also called peptide SB11
On to B6, for which, in the assay with streptavidin [1], the “% binding and eluting” value is 68%.

B7: SB17 (peptide)
peptide: MDEKTHWVGDLQEPLGPLHGGVGEVPGGLVLRHHPQRDRLVDGVGPHGRALARRPHRVVEGLHHLLQRGGERLPPDGPRQLGLLGGELDRADPALVWRLPPS
modifications: C-terminus joined through puromycin to a short DNA oligonucleotide (DNA-tagged peptide); 35S-methionine label
notes: also called peptide SB17
On to B7, for which the “% binding and eluting” value with streptavidin [1] amounted to 8.3%.

B8: SB19 (peptide)
peptide: MDEKTTGWRGGHVVEGLAGELEQLRARLEHHPQGQREPLVQEVEDVDEGLVQDLHGVVAGLLDPVEKLLTDWFKKFKNVSKDCKMTFYLEMYDWSGGCKLG
modifications: C-terminus joined through puromycin to a short DNA oligonucleotide (DNA-tagged peptide); 35S-methionine label
notes: also called peptide SB19; clone SB19
For the molecule B8, the Kd with streptavidin [3] amounted to 0.01 µM. Also, in the assay with streptavidin [1], the “% binding and eluting” value was 85%.

B9: SB16 (peptide)
peptide: MDEKTHWVLQLHPQGDRLGPRHGGDDVRLVGQGEGVLEGLDGRPRRRRHRLPREDEHRVRALVDQVRDLAERLVEEVDGGVEALRHLGLPQDEPRSGGCHHH
modifications: C-terminus joined through puromycin to a short DNA oligonucleotide (DNA-tagged peptide); 35S-methionine label
notes: also called peptide SB16
In the case of B9, the “% binding and eluting” value with streptavidin [1] came out at 50%.

B10: SB18 (peptide)
peptide: MDEKTHCAVNVNVGLTHWCHRVAHLQPLDPHPQGDHLRLEPLGHALVDPLVQGVEEVVRPLQLDVGVQRVALVEQVAEVGEGLDHEAGQAHGALVWRLPPS
modifications: C-terminus joined through puromycin to a short DNA oligonucleotide (DNA-tagged peptide); 35S-methionine label
notes: also called peptide SB18
As for B10, the “% binding and eluting” value in the assay with streptavidin [1] was found to be 58%.

B11: SB10 (peptide)
peptide: MDEKTHWHERAQELVGGLLLHDHPQRLLLEPRGPRPLRGLVHERGHQPQPLAGRVEEADGGLLRDGGGELEPLVREGEDHLEPLDDELDAGPRGLVWRLPHHH
modifications: C-terminus joined through puromycin to a short DNA oligonucleotide (DNA-tagged peptide); 35S-methionine label
notes: also called peptide SB10
In the case of B11, the “% binding and eluting” value with streptavidin [1] was 15%.

Broadly, the Kd is the concentration at which binding is half-saturated. The low end stands for tighter binding, the high end for weaker binding.
